# Measurements reported in PubChem BioAssay.
# Only results without a clear call are listed here; the source files them as inconclusive. Unless noted, the limit is not given here; nearly all actives have AC50 up to about 23 µM.
# Columns and labels:
# [1] = viability loss in pontine glioma line – cell-based, SU-DIPG-XIII, MIPE5.0, CellTiter-Glo, qHTS, dose response (AID 1347064); conditions: CellTiter-Glo ATP luminescence;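 also: cells exposed to compound for 48 hours before the viability read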
# [2] = viability loss in pontine glioma line – cell-based, SU-DIPG-XVII, MIPE5.0, CellTiter-Glo, qHTS, dose response (AID 1347060; cut-off not given, nearly all actives have AC50 up to about 26 µM;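 also: cells exposed to compound for 48 hours before viability readout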); conditions: CellTiter-Glo ATP luminescence
# [3] = viability loss in pontine glioma line – cell-based, SU-DIPG-XXV, MIPE5.0, CellTiter-Glo, qHTS, dose response (AID 1347065; cut-off not given, nearly all actives have AC50 up to about 26 µM;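 also: cells exposed to compound for 48 hours before ATP readout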); conditions: CellTiter-Glo ATP luminescence
# [4] = JHH-DIPG-1 glioma cell viability, MIPE5.0 library, CellTiter-Glo luminescence, qHTS (AID 1347067; cut-off not given, nearly all actives have AC50 up to about 26 µM;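 also: cells exposed to compound for 48 hours before readout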); conditions: JHH-DIPG-1 glioma viability, CellTiter-Glo ATP luminescence
SMILES,AC50 [1],AC50 [2],AC50 [3],AC50 [4]
N[C@@H](Cc1ccc([N+]([O-])(CCCl)CCCl)cc1)C(=O)O,inconclusive: 11.8 µM,,,
CN(C)C1(c2ccccc2)CCC2(CC1)OCCc1c2[nH]c2ccc(F)cc12 (stereo unspecified),inconclusive: 5.25 µM,,,
CCn1c(=O)n([C@@H]2CCN(CC3CCCCCCC3)C[C@H]2CO)c2ccccc21,inconclusive: 20.9 µM,inconclusive: 20.9 µM,inconclusive: 20.9 µM,inconclusive: 1.05 µM
